Patent US8507447, “Treatments of gastrointestinal disorders” (dated 2013)

Tested on: T1, Peptide 1
T1 sequence: CCSLCCNPACTGCY

Substance Potato acid phosphatase has a Dephosphorylation of Peptide 1, Dephospho (%), potato acid phosphatase pH 5 of 22.1% and a Dephosphorylation of Peptide 1, Remaining (%), potato acid phosphatase pH 5 of 77.8%.
